The list shows a part of the results, in another mix than the full data. Calls of active or inactive are those of the source.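 The calls were made as follows: active = mean z-score across replicates of 1.96 or higher in either the MELAS or the Rieske mutant cell line; inactive = the rest.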

The assay is described as follows: MELAS cybrid and Rieske KO viability enhancers – cell-based, MELAS cybrids, Rieske KO mouse fibroblasts, CellTiter-Glo, primary screen (AID 1508586).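 Also: test concentration not given here; z relative to plate mean and SD of compound and empty wells.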 Particulars: MELAS cybrid survival, low glucose, CellTiter-Glo 48 h; active compounds read high. On the technique in general: In ATP-based viability assays light output follows the ATP content of the culture.
Turning to `CN(CCCl)CCCl`, the z-score was inactive: -0.17.

(Values after PubChem BioAssay AID1508586 (ICCB-Longwood Screening Facility, Harvard Medical School, 2020).)
